Most compounds without a hit are left out; they make up all but 2.5% or so of the library.
miR-21 reporter = raises the signal of a miR-21 reporter | Potency, µM (doses to about 38.3 µM) | HeLa miR-21 FLuc reporter, luciferase, 48 h | AID 2288 | 340,000 tested, under 10 active; active = well fitted rising curve with a large enough effect; inconclusive = small, poorly fitted or top-dose-only effect; inactive = no such curve, though single readings can be large or run the other way;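 also: miR-21 action dims this reporter so a rising signal means less miR-21 action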
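HeLa miR-21-FLuc reporter line, endogenous miR-21; 2000 cells/well in DMEM/10% FBS; compound titration up to ~40uM final, 48 h, 37 degree Celsius; luciferase detection reagent, 15 min lysis, CCD luminescence.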
Anesthetic bind = binds horse apoferritin like a general anesthetic; Potency, µM (series often up to 77.5 µM), usual class: inhibitors; AID 485281; apoferritin/1-aminoanthracene competitive binding, fluorescence; 350,000 tested, 0.074% active; further: nearly all actives have a fitted effect of over 20% in size
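Concentration-response curves derived by four-parameter Hill fitting of normalized fluorescence, where compounds displaced 1-AMA from 10 uM horse apoferritin following a brief 10 min room-temperature incubation; propofol titration acted as positive control.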
TrxR1 substrate = substrates of rat thioredoxin reductase 1 | purified TrxR1 substrate turnover, NADPH consumption readout | 390,000 tested, 0.01% active | Potency, µM (top dose mostly 114 µM) | O89049 | AID 588456; further: nearly all actives have a fitted effect of over 50% in size
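Rat TrxR1, dispensed at 90 nM, was prereduced with 400 uM NADPH (final) for 5 min at ~22 deg C, then incubated with compound 15 min before 400 uM selenite. A first-read NADPH fluorescence drop versus no-compound background flagged substrates.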
ClpP mod = qHTS Assay for Activators of ClpP; Potency, µM (titrated, usually from 57.5 µM); purified B. subtilis ClpP, FRET peptide cleavage, 20 min; ATP-dependent Clp protease proteolytic subunit (Bacillus subtilis (strain 168)), P80244; 340,000 tested, 1.9% active; active means well fitted falling curve with a large enough effect; inconclusive means small, poorly fitted or top-dose-only effect; inactive means no such curve, though single readings can be large or run the other way; further: the source files actives as falling curves though it sought activators and does not explain the sign; nearly all actives have a fitted effect of over 65% in size
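FRET quenching reversal measured ClpP activation: 10 microg/mL B. subtilis ClpP at pH 8 with the FRET-FV decapeptide, read at 430 nm after 320 nm excitation. The 20-min minus 0-min signal was scaled between DMSO/no-enzyme wells and ADEP (5.8 microM final).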
TrxR1 inh-1 = inhibitors of rat thioredoxin reductase 1; recombinant rTrxR1, NADPH fluorescence consumption, selenite substrate; Potency, µM (highest dose often 114 µM), hits mostly inhibitors; 390,000 tested, 1% active; O89049; AID 588453; further: nearly all actives have a fitted effect of over 65% in size
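Rat TrxR1 (90 nM in the dispensed reagent) was pre-reduced with 400 uM NADPH for 5 min at room temperature, then incubated with compound for 15 min. After 400 uM selenite was added, NADPH fluorescence (Ex 340/Em 450 nm) was followed for 8 min.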
GR counterassay = glutathione reductase inhibition, TrxR1 selectivity check; activity change, negative = inhibition, % at 57.1 µM; shares compounds with TrxR1 inh-1; 55 tested, under 10 active; purified GR, DTNB reduction absorbance 405 nm kinetic
TrxR1 inh-2 = blocks rat thioredoxin reductase 1 in hit validation; shares compounds with TrxR1 inh-1; recombinant TrxR1, NADPH fluorescence consumption, selenite substrate; Potency, µM, usual class: inhibitors; 55 tested, 50% active
TrxR1 insulin = inhibits TrxR1-driven insulin reduction; shares compounds with TrxR1 inh-1; TrxR1 Trx-coupled insulin reduction, NADPH absorbance 340 nm; Potency, µM; 55 tested, 20% active; AID 652037;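 active means compounds with a measured potency under 100 micromolar; inconclusive means filed, but no rule given; inactive means potency at or above that, or unmeasurable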
TrxR1 inh-3 = inhibitors of rat thioredoxin reductase 1, DTNB reduction | purified TrxR1, DTNB reduction, A412 | AID 652256 | shares compounds with TrxR1 inh-1 | 55 tested, 90% active | Potency, µM;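 active means a half-inhibiting concentration could be measured and was below 100 µM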
ClpP inh valid = Bacillus subtilis ClpP inhibition, validated hit; shares compounds with ClpP mod; purified B. subtilis ClpP, FRET-FV substrate cleavage, 20 min; Potency, µM (series often up to 57.5 µM), actives largely listed as inhibitors; 470 tested, 40% active; AID 743245; further: nearly all actives have a fitted effect of over 70% in size
Numbers stand for hits; i = inactive; ? = inconclusive; nt = no result given; [ ] = dose if it differs, or a comment. Unless noted, the call rests on the fitted dose curve; in most records, active means well fitted curve in the direction sought with a large enough effect; inconclusive means small, poorly fitted or top-dose-only effect, or another doubt; inactive means no such curve, though single readings can be large; an effect the other way counts as inactive or inconclusive.

Sequences of proteins named here, by UniProt entry; tags and fusion partners are left off.
ATP-dependent Clp protease proteolytic subunit (Bacillus subtilis (strain 168)), P80244, UniProt P80244, whole entry, looked up: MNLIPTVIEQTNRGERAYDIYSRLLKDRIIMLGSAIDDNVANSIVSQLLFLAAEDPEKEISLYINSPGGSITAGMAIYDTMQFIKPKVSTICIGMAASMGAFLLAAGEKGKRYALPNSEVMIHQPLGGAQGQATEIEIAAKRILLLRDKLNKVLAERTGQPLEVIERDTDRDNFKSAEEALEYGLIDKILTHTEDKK

SMILES	miR-21 reporter	Anesthetic bind	TrxR1 substrate	ClpP mod	TrxR1 inh-1	others
CCC(C)N1C(=O)/C(=C\c2ccc(N3CCCCCC3)cc2)C(=O)NC1=S (centres undefined)	i	i	i	i	8.9µM
CCC(C)N1C(=O)/C(=C\c2cnc(N(C)C)nc2)C(=O)NC1=S (centres undefined)	i	i	i	nt	14µM
CC(=O)Nc1ccc(Nc2c(CCC(C)C)c(C)c(C#N)c3nc4ccccc4n23)cc1	i	i	i	i	i
Cc1cccc(-n2c(=O)c3c(c4cc(C)ccc4n3C)n(CC(=O)Nc3ccc(C)c(C)c3)c2=O)c1	i	i	i	?	i
COc1ccc(N2CCN(CCCNC(=O)c3cnn(-c4ccc(F)cc4)c3-n3cccc3)CC2)cc1	?	i	i	i	i
CN1C(=O)/C(=C\c2ccc(N3CCCCCC3)cc2)C(=O)NC1=S	i	i	i	i	20µM
CCCCN1C(=O)/C(=C/c2ccc(N3CCCCCC3)cc2)C(=O)NC1=S	i	i	nt	nt	nt
CCN1C(=O)NC(=O)/C(=C\c2cn(CC(=O)N3CCCCC3C)c3ccccc23)C1=O (centres undefined)	i	i	i	i	20µM
Cc1ccc(S(=O)(=O)N(C)C/N=C(\N)N[N+](=O)[O-])cc1	i	i	i	nt	i
Cc1ccc(S(=O)(=O)N(C)CCCC(=O)N2CCN(c3ccccn3)CC2)cc1	i	i	i	32µM	i
COCCOC(=O)c1c(N)n(Cc2ccco2)c2nc3ccccc3nc12	i	i	i	i	i
COC(=O)c1c(N)n(Cc2ccc(OC)cc2)c2nc3ccccc3nc12	i	i	i	10µM	i
CC(C)CNC(=O)c1c(N)n(Cc2ccco2)c2nc3ccccc3nc12	i	i	i	22µM	i
COCCCNC(=O)c1c(N)n(Cc2ccco2)c2nc3ccccc3nc12	i	i	i	i	?
Nc1c(C(=O)NCc2ccco2)c2nc3ccccc3nc2n1CCN1CCCCC1	i	i	i	i	i
COc1ccc(Cn2c(N)c(C(=O)NCc3ccco3)c3nc4ccccc4nc32)cc1OC	i	i	i	32µM	i
CCCNC(=O)c1c(N)n(Cc2ccco2)c2nc3ccccc3nc12	i	i	i	28µM	i
CCCN1CCCC2Cc3[nH]ncc3CC21 (centres undefined)	nt	nt	nt	nt	i
COc1cccc([C@@]2(O)CCCCC2CN(C)C)c1 (some centres undefined)	nt	i	nt	nt	nt
C[C@@H]1CNC(=O)c2c(C(=O)Nc3cccc(Cl)c3)ncn21	nt	nt	nt	i	nt
CC(C)OC(=O)c1c(N)n(Cc2ccco2)c2nc3ccccc3nc12	i	i	i	14µM	i
C[C@@H]1C[C@H](C)C[C@H](C)[C@@H](O)CC(=O)O[C@H]([C@H]2CCC[C@H]2C(=O)O)C/C=C/C=C(/C#N)[C@H](O)[C@@H](C)C1	nt	i	nt	nt	nt
Cc1nc2ccccc2c(=O)n1-c1cccc(C(F)(F)F)c1	i	i	i	28µM	i
CC(O)C1C=CC=CC(=O)OC2CC3OC4C5OC5(C)C(O)CC4(COC(=O)C(O)C(C)CCO1)C2(C)C31CO1 (centres undefined)	nt	nt	i[11.4 µM]	32µM	i[11.4 µM]
CCOc1ccc(-c2cc(C)[n+](CCN3CCOCC3)c(-c3ccc(OCC)cc3)c2)cc1	?	i	i	nt	i
SMILES	miR-21 reporter	Anesthetic bind	TrxR1 substrate	ClpP mod	TrxR1 inh-1	others
COc1cc(OC)cc(-c2sc3ccc(OC)cc3c2-c2ccc(OCCN3CCOCC3)cc2)c1	nt	nt	i	8.9µM	i
COc1ccc2sc(-c3ccccc3OC)c(-c3ccc(OCCN4CCOCC4)cc3)c2c1	nt	nt	i	28µM	i
COc1cccc(-c2sc3ccccc3c2-c2ccc(OCCN3CCOCC3)cc2)c1	nt	nt	i	32µM	i
CCCCC/C=C\C/C=C\C/C=C\C/C=C\CCCC(=O)N(Cc1ccc(O)c(Cl)c1)Cc1ccc(O)c(Cl)c1	nt	i	nt	nt	nt
CCC(C)(C)NC(=O)C(NS(=O)(=O)c1cccs1)c1ccccc1 (centres undefined)	i	i	i	i	i
O=C(O)CCC(=O)NCCC1=c2ccccc2=N/C1=C\c1c(O)n(Cc2ccc(F)cc2)c(=S)[nH]c1=O	i	i	i	nt	35µM
CN1C(=O)C(=Cc2ccccc2OCc2ccc(Cl)cc2)C(=O)N(C)C1=O	i	i	i	nt	i
O=C1NC(=O)C(=Cc2cc(Cl)ccc2OCc2ccc(C(=O)O)cc2)C(=O)N1	i	i	i	?	10µM
ClCCN(CCCl)c1ccc(C=Nc2ccc(/C=C/c3ccncc3)cc2)cc1	nt	nt	i	i	i
CCOc1cc(-c2ccc(N)c(OCC)c2)ccc1N	i	i	i	32µM	i
O=C1C=CC2C3C(=O)N(c4ccccc4)C(=O)C3C1N2Cc1ccccc1 (centres undefined)	nt	nt	i[11.4 µM]	i	3.5µM	GR counterassay=i;TrxR1 inh-2=?;TrxR1 insulin=17µM;TrxR1 inh-3=1.5µM
COC(=O)[C@@H]1[C@@H](O)[C@@]2(O)c3c(OC)cc(OC)cc3O[C@@]2(c2ccc(OC)cc2)[C@H]1c1ccccc1	nt	i[15.3 µM]	nt	nt	nt
COc1ccc(S(=O)(=O)NC(CC(=O)N2CCC3(CC2)OCCO3)c2ccco2)cc1 (centres undefined)	i	i	i	2.8µM	i	ClpP inh valid=i
CN1CC[C@@]2(C)c3cc(OC(=O)Nc4ccccc4)ccc3N(C)[C@@H]12	nt	i	i	nt	?
O=P(O)(O)c1ccccc1OCCOCCOCCOCCOc1ccccc1P(=O)(O)O	i	i	i	i	?
Cc1ccc(CNC(=O)c2ccc(Nc3nc4ccccc4n4nnnc34)cc2)cc1	i	i	i	i	i	ClpP inh valid=2.7µM
O=C(NCCc1ccc(Cl)cc1)c1ccc(Nc2nc3ccccc3n3nnnc23)cc1	i	i	i	i	i	ClpP inh valid=22µM
COc1ccc(C(=O)NCc2cc3ccccc3n2C)cc1	i	i	i	i	i

Screening data as filed in PubChem.
